In patent US20050191668A1, “Methods of using peroxisome proliferator-activated receptor alpha target genes” (priority 2004, published 2005):

Tested on: Pa21 gene
Test: Pa21 gene expression by real-time RT-PCR in primary skeletal muscle cells
Assay type: cell-based, human
Conditions: 100 uM, about 18-20 hours, vehicle control = 100
Excerpt: Human hepatocyte HuH7 cells, which are epithelial cells of liver, were obtained from Japan Health Science Research Resources Bank (Osaka, Japan). Human primary adipocytes, which are connective tissue cells specialized for the synthesis and storage of fat, were obtained from Zen-Bio, Inc (Research Triangle Park, NC). Human primary skeletal muscle cells (SKMC) were obtained from Cambrex Bio Science (Walkersville, Md.). PPARα agonists, Wy14643 (Agatha, et al, 2000, Archives of Biochemistry and Biophysics 380:353-359) and fenofibrates were obtained from Cayman Chemical (Ann Arbor, Mich.) and Sigma (St Louis, Mo.), respectively.
Human HuH7 cells were cultured in Dulbecco's Modified Eagle Medium with 10% Fetal Bovine Serum (Gibco, N.Y.). […]
Reverse transcription (RT) and PCR were conducted in one step using “One-Step RT-PCR Master Mix Reagent” kit (Applied Biosystems, Foster City, Calif.) in ABI PRISM 7700 Sequence Detection System (Applied Biosystems). […] PCR data were collected by Ct value (the cycle number at which logarithmic PCR plots cross a calculated threshold line) according to the manufacturer's guidelines and the value was used to determine the Δ^Ct (Ct of the target gene minus the Ct of 18S ribosomal RNA controls). Relative mRNA level was calculated using the equation 2^−ΔΔCt as described previously (Heid et al., 1996, Genome Res. 6:986-994).

CC(C)OC(=O)C(C)(C)Oc1ccc(C(=O)c2ccc(Cl)cc2)cc1 [Fenofibrate]
Pa21 (H4960) gene expression, Percentage ± SE (%): 670 ± 46%
